The conditions of the data set: in water; synthesized salts (and cannabinol parent).

As usually defined, the Solubility is how much of the substance goes into solution per volume. “L-Lysine Salt with CBD (1:1) [drawing 17/drawing 19 1:1]”: the Solubility is recorded as 2 mg/mL.
As for “L-Lysine Salt with CBD (2:1) [drawing 17/drawing 19 1:2]”, the figure is 4 mg/mL.

The values are drawn from patent publication US12129233B2, “Water-soluble salts of cannabinoids, preparation and uses thereof” (priority 2021, dated 2024).
